{
  "source": "paper PMC6298966",
  "about": "“HAI Peptide and Backbone Analogs—Validation and Enhancement of Biostability and Bioactivity of BBB Shuttles” (Scientific Reports, 2018)",
  "key": {"[1]": {"tested_on": "in vitro bovine BBB model", "test": "In vitro bovine BBB cell-based model assay", "settings": "Table 1, 2 h at 37 °C, 200 μM, RP-HPLC"}, "Caco-2 cells": {"tested_on": "Caco-2 cells", "test": "Caco-2 intestinal barrier model assay"}, "[2]": {"settings": "Table 1, 2 h at 37 °C, HBSS, 50 μM, RP-HPLC"}},
  "data": [
    {"substance": "Penetratin", "values": [
      {"measurement": "BBB Papp", "setting": "[1]", "value": "3.0 ± 0.6 ×10^−6 cm/s"},
      {"measurement": "BBB T (%)", "setting": "[1]", "value": "1.8 ± 0.2", "unit": "%"},
      {"measurement": "Detection by MALDI-TOF MS in acceptor wells", "setting": "Caco-2 cells; Caco-2 assay, after 2 h", "value": "detected"},
      {"measurement": "Caco-2 Papp", "setting": "Caco-2 cells; [2]", "value": "4.2 ± 1.3 ×10^−10 cm/s"},
      {"measurement": "Caco-2 T (%)", "setting": "Caco-2 cells; [2]", "value": "1.6 ± 0.5", "unit": "%"}
    ]}
  ]
}
